The values below are quoted from earlier work in patent publication US11746374B2, “Methods and platform for screening and selecting metabolites and their receptors” (BOARD OF REGENTS, THE UNIVERSITY OF TEXAS SYSTEM, priority 2017, dated 2023).

Chains of the proteins cited; added tags and fusions are not shown.
UniProt P34972, whole entry: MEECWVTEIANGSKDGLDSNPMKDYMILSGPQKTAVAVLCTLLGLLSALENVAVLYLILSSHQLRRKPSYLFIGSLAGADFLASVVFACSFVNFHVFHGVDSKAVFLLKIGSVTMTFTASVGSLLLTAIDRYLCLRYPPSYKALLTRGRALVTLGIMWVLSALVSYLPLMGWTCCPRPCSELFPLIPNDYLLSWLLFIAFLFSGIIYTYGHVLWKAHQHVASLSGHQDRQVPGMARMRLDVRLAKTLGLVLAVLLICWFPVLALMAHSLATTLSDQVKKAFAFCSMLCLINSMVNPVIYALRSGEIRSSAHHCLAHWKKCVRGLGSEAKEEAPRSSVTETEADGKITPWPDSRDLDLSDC

This data set deals with wild-type CB2 receptor (Homo sapiens, UniProt P34972). The conditions noted are these: Pertwee 2008; cited from earlier work.

As to `C=C(C)[C@@H]1CCC(C)=C[C@H]1c1c(O)cc(CCCCC)cc1O` [CBD, cannabidiol], the “affinity for wild-type CB2 receptor” value is on record as “micromolar affinities”.
